Protein sequences, listed by entry. Tags and fused reporters are not part of them. Lines headed by an entry give the natural chain unless they say otherwise; changes in a name come on top.
UniProt Q969H0, whole entry, stated change not applied: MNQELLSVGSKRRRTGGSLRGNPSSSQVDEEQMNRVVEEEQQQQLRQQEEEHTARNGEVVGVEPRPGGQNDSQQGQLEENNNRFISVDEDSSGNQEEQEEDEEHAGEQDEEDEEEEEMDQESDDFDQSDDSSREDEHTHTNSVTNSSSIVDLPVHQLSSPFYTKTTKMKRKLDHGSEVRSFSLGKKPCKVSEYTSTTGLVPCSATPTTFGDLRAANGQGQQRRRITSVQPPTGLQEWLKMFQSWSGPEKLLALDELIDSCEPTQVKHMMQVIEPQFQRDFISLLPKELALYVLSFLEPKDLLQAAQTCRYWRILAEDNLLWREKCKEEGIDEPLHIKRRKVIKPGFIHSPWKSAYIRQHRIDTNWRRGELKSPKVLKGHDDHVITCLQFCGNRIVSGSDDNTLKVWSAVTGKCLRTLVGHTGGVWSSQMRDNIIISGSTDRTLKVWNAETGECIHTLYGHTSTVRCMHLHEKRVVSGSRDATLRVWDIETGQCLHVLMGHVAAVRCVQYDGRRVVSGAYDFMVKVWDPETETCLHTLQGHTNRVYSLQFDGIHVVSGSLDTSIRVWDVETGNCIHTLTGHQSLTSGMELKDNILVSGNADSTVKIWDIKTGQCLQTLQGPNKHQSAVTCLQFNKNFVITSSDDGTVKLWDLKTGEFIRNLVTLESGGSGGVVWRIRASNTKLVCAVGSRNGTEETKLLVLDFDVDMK

Only a part is listed here, and it is no random draw. Some results for these compounds are left out of this collection, so the calls shown say nothing about other tests. Calls of active or inactive are those of the source. Rule as the data show it: active = normalized activity above about 1.9%; inactive = the rest.
These molecules were tested against F-box/WD repeat-containing protein 7 (Homo sapiens) (UniProt Q969H0) (assay: FBW7 E3 ligase activators, primary screen, biochemical, AlphaScreen, human (AID 1259310;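 also: purified mutant Fbw7 with reduced substrate affinity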)). Conditions: AlphaScreen FBW7–phospho-cyclin E peptide binding, activator screen; at 26.1 µM; hits give high values.
With `CN(C)C1(CNC(=O)c2c(F)cccc2F)CCCCC1` the normalized activity (activation) was inactive: -0.12%. For `CN(C)c1cccc(C(=O)NCC2(N(C)C)CCCCC2)c1`, the normalized activity (activation) was inactive: -0.07%. With `CC(C)Oc1ccc(C(=O)NCC2(N(C)C)CCCCC2)cc1` the normalized activity (activation) was inactive: -0.09%. `CN1C2CCC1CC(OC(=O)C(O)(c1ccccc1)c1ccccc1)C2` (stereo not given) was tested, and the normalized activity (activation) was inactive: -0.33%. `COc1cccc(C(=O)NCC2(N3CCCCC3)CCCCC2)c1` was tested, and the normalized activity (activation) was inactive: -0.05%. In the case of `COc1ccc(Cl)cc1C(=O)NCC1(N(C)C)CCCCC1`, the normalized activity (activation) is reported as inactive: 0.14%. For `CC(CCN(C)C)OC(=O)C(O)(c1ccccc1)c1ccccc1` (stereo not given), the normalized activity (activation) was inactive: -0.27%. In the case of `CN(C)C1(CNC(=O)c2n[nH]c3ccccc23)CCCCC1`, the normalized activity (activation) is reported as inactive: 0.03%. With `CN(C)c1ccc(C(=O)NCC2(N(C)C)CCCCC2)cc1` the normalized activity (activation) was inactive: 0.49%. In the case of `CN(C)C1CCCC1OC(=O)C(O)(c1ccccc1)c1ccccc1` (stereo not given), the normalized activity (activation) is reported as inactive: 0.59%. For `COc1ccc(C(=O)NCC2(N(C)C)CCCCC2)cc1`, the normalized activity (activation) was inactive: 0.62%. `CC(C)N(CCOC(=O)C(O)(c1ccccc1)c1ccccc1)C(C)C` was tested, and the normalized activity (activation) was inactive: 1.19%. With `O=C(NCC1(N2CCOCC2)CCCCC1)c1cnc(Cl)c(Cl)c1` the normalized activity (activation) was inactive: 0.04%. In the case of `CN1CCCC(COC(=O)C(O)(c2ccccc2)c2ccccc2)C1` (stereo not given), the normalized activity (activation) is reported as inactive: -0.02%. `COc1cc(SC)ccc1C(=O)NCC1(N(C)C)CCCCC1` was tested, and the normalized activity (activation) was inactive: 0%.
